# Experimental data from patent US20180057505A1, “BICYCLIC HETEROARYL COMPOUNDS USEFUL AS INHIBITORS OF THE PAR-2 SIGNALING PATHWAY” (VERTEX PHARMACEUTICALS INCORPORATED, priority 2015, published 2018).
# Amino acid sequences for entries named in this document (tags omitted). Residues count along the entry.
# UniProt P55085, 26-397 limits assumed: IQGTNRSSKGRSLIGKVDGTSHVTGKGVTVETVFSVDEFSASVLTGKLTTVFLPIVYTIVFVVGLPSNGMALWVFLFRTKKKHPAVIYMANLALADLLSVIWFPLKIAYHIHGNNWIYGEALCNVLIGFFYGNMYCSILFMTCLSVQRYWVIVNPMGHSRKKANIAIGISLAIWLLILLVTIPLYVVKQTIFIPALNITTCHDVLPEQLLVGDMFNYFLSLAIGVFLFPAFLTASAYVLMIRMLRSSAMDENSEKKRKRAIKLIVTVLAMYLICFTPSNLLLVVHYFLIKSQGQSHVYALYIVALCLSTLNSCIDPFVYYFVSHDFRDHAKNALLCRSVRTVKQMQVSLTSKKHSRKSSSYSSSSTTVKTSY
# Assays:
# PAR2 (HT-29 cells) [1] = molecular target: T1, PAR2 (HT-29 cells) (Homo sapiens, UniProt P55085); test: Ca FLIPR TETRA assay, ANTAGONIST mode, activator 8 μM SLIGKV; settings: read-out: SLIGKV IC50, Method A: maximal concentration of antagonist 0.1, 1 or 2 μM
# Procedure: (§1) Protocol for Testing PAR2 Compounds in ANTAGONIST Mode Using the Ca FLIPR^TETRA Assay (384 Well).
# (§2) 23000 HT-29 cells (ATCC# HTB-38) were plated in 384-well black, transparent-flat bottom plates and incubated in 25 uL of 1% FBS/McCoy's media ON at 37° C. under an atmosphere of 5% CO2. The following day, 25 uL FLIPR calcium 5 Molecular Devices assay reagent (Cat: R-8186) was added. Plates were incubated at 37° C. and r. t. for 45 min and 15 min, respectively. Compounds dilutions were prepared in 100% DMSO using a Biomek FX and diluted 20-fold in HBSS and then 5.5 uL was added directly to the cells by the FLIPR^TETRA (10× dilution) using FLIPR Tetra Pipette tips, black, non-sterile, 384 Molecular Devices (Cat: 9000-0764).
# (§3) A first read was performed to determine whether the test compounds on their own can activate Ca^2+ responses. The cells were incubated with the compounds for 30 min at r. t. and then read in ANTAGONIST mode in the same plate by stimulating with 6.2 uL of a fixed concentration of the activator: final concentrations 8 μM SLIGKV, 1 U/mL Thrombin, 3.1 U/mL trypsin, or 0.6 μM UTP.
# PAR2 (HT-29 cells) [2] = molecular target: T1, PAR2 (HT-29 cells); test: Ca FLIPR TETRA assay, ANTAGONIST mode, activator 3.1 U/mL trypsin; settings: read-out: Trypsin IC50, Method A: maximal concentration of antagonist 0.1, 1 or 2 μM
# Procedure: as §1, §2, §3
# [3] = system: Thrombin-stimulated Ca2+ response in HT-29 cells; test: Ca FLIPR TETRA assay, ANTAGONIST mode, activator 1 U/mL Thrombin; settings: read-out: Thrombin IC50
# Procedure: as §1, §2, §3
# [4] = system: UTP-stimulated Ca2+ response in HT-29 cells; test: Ca FLIPR TETRA assay, ANTAGONIST mode, activator 0.6 μM UTP; settings: read-out: UTP IC50
# Procedure: as §1, §2, §3
IC50 (PAR2 (HT-29 cells) [1]),IC50 (PAR2 (HT-29 cells) [2]),IC50 [3],IC50 [4],Compound
3.4 nM,6.4 nM,> 2000 nM,> 2000 nM,Cn1ncc(N2CCN(C(=O)c3cc4nc(-c5ccc(Cl)c(F)c5)cc(C(C)(C)C)c4o3)C(C)(C)C2=O)n1
30 nM,39 nM,> 2000 nM,> 2000 nM,CC(C)(C)c1cc(N2CC3(CCC3)C2)nc2cc(C(=O)N3CCN(C(=O)[C@H]4C[C@@](C)(O)C4)CC3(C)C)oc12 (relative stereo)
